Read-outs that look alike come from different tables or passages of the source. Bounds are passed on as bounds.

Chains of the proteins cited; added tags and fusions are not shown.
UniProt O35433, whole entry: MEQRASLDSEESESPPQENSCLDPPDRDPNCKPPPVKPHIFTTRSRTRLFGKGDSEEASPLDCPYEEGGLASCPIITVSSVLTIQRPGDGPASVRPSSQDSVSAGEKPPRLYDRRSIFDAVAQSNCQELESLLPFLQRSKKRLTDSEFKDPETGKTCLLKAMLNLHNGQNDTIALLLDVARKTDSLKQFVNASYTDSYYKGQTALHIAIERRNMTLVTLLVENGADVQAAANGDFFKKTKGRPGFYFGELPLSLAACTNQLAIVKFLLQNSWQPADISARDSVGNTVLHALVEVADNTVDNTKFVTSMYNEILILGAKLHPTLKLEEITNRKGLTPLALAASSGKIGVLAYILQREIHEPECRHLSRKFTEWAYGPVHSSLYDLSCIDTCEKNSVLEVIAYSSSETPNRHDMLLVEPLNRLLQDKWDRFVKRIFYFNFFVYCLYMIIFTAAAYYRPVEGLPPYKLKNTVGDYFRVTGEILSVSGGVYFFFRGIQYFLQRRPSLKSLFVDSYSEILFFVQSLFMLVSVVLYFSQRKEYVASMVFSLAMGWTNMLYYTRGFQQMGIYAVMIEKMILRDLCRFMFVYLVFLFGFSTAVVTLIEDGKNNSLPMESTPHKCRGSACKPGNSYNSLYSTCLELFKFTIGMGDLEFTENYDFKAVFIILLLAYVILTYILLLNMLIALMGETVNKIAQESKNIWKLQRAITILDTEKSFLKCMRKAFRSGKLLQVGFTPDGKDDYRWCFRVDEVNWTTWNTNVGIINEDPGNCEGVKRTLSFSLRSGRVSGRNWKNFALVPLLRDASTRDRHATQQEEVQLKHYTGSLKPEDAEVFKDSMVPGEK

In patent US9422293B2 (dated 2016) one finds IC50 data, which are given here for 22 compounds.

Experiment [1] concerns the target T1, rat TRPV1 (Rattus norvegicus (Rat), UniProt O35433). The following applies: read-out: Rat IC50.
Experiment [2] has as its target T1, rat TRPV1. The experiment in a line: cell-based. The following applies: Rat IC50 (μM).

Regarding `CSc1nc2c(c(Nc3ccc4c(c3)N(C)CCC4(C)C)n1)CCN(c1ncccc1C(F)(F)F)CC2`, the IC50 – broadly, the point on the concentration scale where inhibition reaches its midpoint – at rat TRPV1 [1] is 290 nM. Regarding `Cc1nc2c(c(Nc3ccc(C(F)(F)F)cn3)n1)CCN(c1ncccc1C(F)(F)F)CC2` [Example 24, [2-Methyl-7-(3-trifluoromethyl-pyridin-2-yl)-6,7,8,9-tetrahydro-5H-pyrimido[4,5-d]azepin-4-yl]-(5-trifluoromethyl-pyridin-2-yl)-amine], the IC50 at rat TRPV1 [1] was 290 nM. The same measure, in the same setting: in the case of `CN(C)CCN(C)c1nc2c(c(NCc3ccc(Cl)c(Cl)c3)n1)CCN(c1ncccc1C(F)(F)F)CC2` [Example 227] it was over 20000 nM. In the case of `O=S(=O)(c1ccc(Nc2nc(N3CCCCC3)nc3c2CCN(c2ncccc2C(F)(F)F)CC3)cc1)C(F)(F)F`, on rat TRPV1 [1], the IC50 stood at 40 nM. The same measure, in the same setting: in the case of `CC(C)c1nc2c(c(NCc3ccccc3Cl)n1)CCN(c1ncccc1C(F)(F)F)CC2` [Example 121] it was over 20000 nM; in that of `CN1CCC(C)(C)c2ccc(Nc3nc(S(C)(=O)=O)nc4c3CCN(c3ncccc3C(F)(F)F)CC4)cc21`, over 20000 nM.

Consider `CN(C)CCN(C)c1nc2c(c(Nc3ccc(C(F)(F)F)c(Cl)c3)n1)CCN(c1ncccc1C(F)(F)F)CC2` [Example 226, N^4-[3-Chloro-4-(trifluoromethyl)phenyl]-N^2-[2-(dimethylamino)ethyl]-N^2-methyl-7-[3-(trifluoromethyl)pyridin-2-yl]-6,7,8,9-tetrahydro-5H-pyrimido[4,5-d]azepine-2,4-diamine], for which, at rat TRPV1 [1], the IC50 is 1730 nM.

With `CC(C)c1nc2c(c(Nc3ncccn3)n1)CCN(c1ncccc1C(F)(F)F)CC2` [Example 107, [2-Isopropyl-7-(3-trifluoromethyl-pyridin-2-yl)-6,7,8,9-tetrahydro-5H-pyrimido[4,5-d]azepin-4-yl]-pyrimidin-2-yl-amine], the IC50 on rat TRPV1 [1] is over 20000 nM.

For `CN(C)CCN(C)c1nc2c(c(Nc3ccc(C(F)(F)F)cn3)n1)CCN(c1ncccc1C(F)(F)F)CC2` [Example 195, N^2-[2-(Dimethylamino)ethyl]-N^2-methyl-7-[3-(trifluoromethyl)pyridin-2-yl]-N^4-[5-(trifluoromethyl)pyridin-2-yl]-6,7,8,9-tetrahydro-5H-pyrimido[4,5-d]azepine-2,4-diamine], the IC50 on rat TRPV1 [1] was determined as 4320 nM. On to `CC(O)CSc1nc2c(c(Nc3ccc(C(F)(F)F)cc3)n1)CCN(c1ncccc1C(F)(F)F)CC2` (stereo not shown), for which the IC50 on rat TRPV1 [1] turned out to be 290 nM. As to `COCc1nc2c(c(Nc3ccc(C(F)(F)F)cc3)n1)CCN(c1ncccc1C(F)(F)F)CC2` [Example 76B], the IC50 at rat TRPV1 [1] was determined as 91 nM. As to `CC(C)c1nc2c(c(Nc3ccc(OC(F)(F)F)cc3)n1)CCN(c1ncccc1C(F)(F)F)CC2` [Example 11, [2-Isopropyl-7-(3-trifluoromethyl-pyridin-2-yl)-6,7,8,9-tetrahydro-5H-pyrimido[4,5-d]azepin-4-yl]-(4-trifluoromethoxy-phenyl)-amine], the IC50 on rat TRPV1 [1] was 200 nM. Regarding `FC(F)(F)c1ccc(Nc2nc(N3CCCOCC3)nc3c2CCN(c2ncccc2C(F)(F)F)CC3)cc1` [Example 237], the IC50 at rat TRPV1 [1] was 10 nM. Regarding `O=S1(=O)CCN(c2nc3c(c(Nc4ccc(C(F)(F)F)cc4)n2)CCN(c2ncccc2C(F)(F)F)CC3)CC1`, the IC50 on rat TRPV1 [1] is over 20000 nM. The same measure, in the same setting: in the case of `CC(Oc1nc2c(c(Nc3ccc(S(=O)(=O)N4CCCC4)cc3)n1)CCN(c1ncccc1C(F)(F)F)CC2)C1CC1` (stereo not shown) it was 40 nM. As for `CC(C)(C)c1nc2c(c(Nc3ccc(C(F)(F)F)cc3)n1)CCN(c1ncccc1C(F)(F)F)CC2`, inhibition against rat TRPV1 [2] was half-maximal at 0.62 µM (IC50). For the compound `Oc1nc2c(c(Nc3ccc(C(F)(F)F)cc3)n1)CCN(c1ncccc1C(F)(F)F)CC2`, the concentration for half-maximal inhibition (IC50) on rat TRPV1 [1] is over 20000 nM.

In the case of `OCc1cnc(N2CCc3nc(N4CCCCC4)nc(Nc4ccc(C(F)(F)F)cc4)c3CC2)c(Cl)c1` [Example 394, {5-Chloro-6-[2-piperidin-1-yl-4-(4-trifluoromethyl-phenylamino)-5,6,8,9-tetrahydro-pyrimido[4,5-d]azepin-7-yl]-pyridin-3-yl}-methanol], the IC50 on rat TRPV1 [1] is 290 nM. Still for that read-out and setting: as for `CN(C)c1nc2c(c(Nc3ccc(S(N)(=O)=O)cc3)n1)CCN(c1ncccc1C(F)(F)F)CC2`, the figure is over 20000 nM. As to `CC(C)(C)c1ccc(Nc2nc(N3CCCCCC3)nc3c2CCN(c2ncccc2C(F)(F)F)CC3)cc1`, the IC50 at rat TRPV1 [1] turned out to be 10 nM.

Turning to `CC(C)c1nc2c(c(Nc3ccc(C(=O)O)cc3)n1)CCN(c1ncccc1C(F)(F)F)CC2`, at rat TRPV1 [1], the IC50 is over 20000 nM.

Regarding `CC(C)c1nc2c(c(NCCc3cccc(Cl)c3)n1)CCN(c1ncccc1C(F)(F)F)CC2` [Example 123, N-[2-(3-Chlorophenyl)ethyl]-2-(1-methylethyl)-7-[3-(trifluoromethyl)pyridin-2-yl]-6,7,8,9-tetrahydro-5H-pyrimido[4,5-d]azepin-4-amine], at rat TRPV1 [1], the IC50 amounted to 990 nM.
